Protein sequences, listed by entry. Tags and fused reporters are not part of them. Residues count along the entry.
Melanocortin receptor 4 (Homo sapiens), P32245, UniProt P32245, whole entry, looked up: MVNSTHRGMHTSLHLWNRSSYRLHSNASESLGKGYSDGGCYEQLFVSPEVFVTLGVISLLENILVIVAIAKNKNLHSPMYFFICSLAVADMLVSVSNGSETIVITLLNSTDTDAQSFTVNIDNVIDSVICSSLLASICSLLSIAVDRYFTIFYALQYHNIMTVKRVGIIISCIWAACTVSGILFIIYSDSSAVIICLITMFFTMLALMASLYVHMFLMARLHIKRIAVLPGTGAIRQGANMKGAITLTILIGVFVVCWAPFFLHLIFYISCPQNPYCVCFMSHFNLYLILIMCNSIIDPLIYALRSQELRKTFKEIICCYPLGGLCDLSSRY
Neuropilin-1 (Homo sapiens), O14786, UniProt O14786, whole entry, looked up: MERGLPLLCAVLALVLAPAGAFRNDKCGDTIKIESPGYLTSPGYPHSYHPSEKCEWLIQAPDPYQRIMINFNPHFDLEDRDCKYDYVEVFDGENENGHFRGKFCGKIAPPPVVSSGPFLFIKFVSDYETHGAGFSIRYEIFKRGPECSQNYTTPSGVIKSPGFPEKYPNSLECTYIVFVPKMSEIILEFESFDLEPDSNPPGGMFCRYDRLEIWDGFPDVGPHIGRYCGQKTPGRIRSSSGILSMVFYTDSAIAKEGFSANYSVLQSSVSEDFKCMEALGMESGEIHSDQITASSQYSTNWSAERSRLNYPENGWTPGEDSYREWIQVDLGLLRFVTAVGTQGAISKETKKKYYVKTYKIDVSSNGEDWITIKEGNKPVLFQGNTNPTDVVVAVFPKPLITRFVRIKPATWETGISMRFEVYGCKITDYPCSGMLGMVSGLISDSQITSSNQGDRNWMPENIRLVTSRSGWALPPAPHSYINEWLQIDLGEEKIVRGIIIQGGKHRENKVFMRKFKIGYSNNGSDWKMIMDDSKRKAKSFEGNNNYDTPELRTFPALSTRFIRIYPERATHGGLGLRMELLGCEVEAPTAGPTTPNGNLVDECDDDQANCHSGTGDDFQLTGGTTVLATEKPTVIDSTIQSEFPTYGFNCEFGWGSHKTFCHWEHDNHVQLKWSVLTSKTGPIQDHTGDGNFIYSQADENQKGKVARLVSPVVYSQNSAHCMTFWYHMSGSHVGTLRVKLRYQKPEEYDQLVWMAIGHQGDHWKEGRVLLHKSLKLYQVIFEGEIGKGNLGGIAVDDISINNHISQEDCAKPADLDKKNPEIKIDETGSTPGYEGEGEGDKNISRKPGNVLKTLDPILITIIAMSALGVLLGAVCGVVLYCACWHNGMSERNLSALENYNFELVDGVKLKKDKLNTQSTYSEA
ADP-ribosylation factor GTPase-activating protein 1 (Rattus norvegicus), Q62848, UniProt Q62848, whole entry, looked up: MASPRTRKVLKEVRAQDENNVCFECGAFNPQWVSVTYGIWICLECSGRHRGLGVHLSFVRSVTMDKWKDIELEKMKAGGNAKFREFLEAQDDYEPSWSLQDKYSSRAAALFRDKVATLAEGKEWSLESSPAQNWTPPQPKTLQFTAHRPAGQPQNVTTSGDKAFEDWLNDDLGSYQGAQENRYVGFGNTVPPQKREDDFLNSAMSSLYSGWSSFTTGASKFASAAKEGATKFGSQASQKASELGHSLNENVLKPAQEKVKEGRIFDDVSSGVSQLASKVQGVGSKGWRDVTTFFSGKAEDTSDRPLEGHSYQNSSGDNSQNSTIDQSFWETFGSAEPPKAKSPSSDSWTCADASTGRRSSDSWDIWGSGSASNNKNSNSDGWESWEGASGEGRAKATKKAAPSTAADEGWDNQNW
ADP-ribosylation factor GTPase-activating protein 1 (Rattus norvegicus), Q62848, UniProt Q62848, 1-136 limits assumed: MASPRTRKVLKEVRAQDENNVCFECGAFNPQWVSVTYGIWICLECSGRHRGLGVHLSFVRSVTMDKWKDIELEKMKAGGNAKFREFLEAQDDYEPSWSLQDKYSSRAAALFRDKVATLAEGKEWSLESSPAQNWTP

# Compound activity: PubChem, several laboratories
# MC4R antag cAMP – MC4R antagonists of cAMP signaling, primary screen, cell-based, TR-FRET, antagonist arm of biased-ligand search | MC4R-expressing cells, MTII-stimulated cAMP, LANCE TR-FRET | inhibition, % at 6.5 µM | 0.48% of 360,000 active | Melanocortin receptor 4 (Homo sapiens), P32245;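 active means inhibition above its plate's cutoff, the mean of tested wells on that plate plus 3 SD, cut at about 29% in these data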;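 further: 0% = Melanotan II alone and 100% = Melanotan II plus saturating MCL0020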
#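 system = U2OS cells with stable human MC4R expression | also added = Melanotan II challenge after compound preincubation | dosing = one concentration, 6.5 µM nominal | incubation = compound 30 min, challenge 1 h, detection 1 h | measured by = TR-FRET with Eu-cAMP and labeled anti-cAMP, 671 nm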
# NRP1-CendR mod – modulators of CendR peptide binding to NRP-1, primary screen, biochemical, fluorescence polarization, uHTS; Neuropilin-1 (Homo sapiens), O14786; FAM-RPARPAR peptide binding to NRP-1; inhibition, % at 25 µM; 0.85% of 360,000 active;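 active means inhibition or corrected inhibition above about 18%, plus a signal ratio from 0.5 to 1.5, limit read from the data, passing the limit was not always enough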
# ASAP1 inh – inhibitors of human ASAP1 ArfGAP activity, primary screen, biochemical, fluorescence polarization | Arf-GAP with SH3 domain, ANK repeat and PH domain-containing protein 1 (Homo sapiens), … | ASAP1-stimulated ARF1 GTP hydrolysis, GDP FP detection | inhibition, % at 16.5 µM | 0.19% of 360,000 active; in the data active means inhibition above about 25%;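 further: 0% = vehicle with enzyme and substrate and 100% = no enzyme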
# MC4R ag barr – MC4R agonists recruiting beta-arrestin, primary screen, cell-based, luminescence, agonist arm of biased-ligand search; Melanocortin receptor 4 (Homo sapiens), P32245; U2OS MC4R beta-arrestin complementation; percent of melanotan II response, DMSO zero; activation, % at 8.9 µM; 0.98% of 360,000 active; AID 540308, 2011;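 active means activation above a per-plate cutoff, the mean activation of sample wells on that plate plus 3 SD, cut at about 8% in these data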
# UUG fidelity – yeast start codon fidelity modulation | S. cerevisiae UUG-firefly luciferase reporter, luminescence/redox ratio | activity score, % at 18.7 µM | hit rate 0.13% among 350,000 | AID 602363;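 active means replicate mean at a twofold rise or more, about +100% in these data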;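 further: firefly luciferase made from a UUG start codon reports start codon fidelity; reporter light over untreated wells divided by growth signal over untreated wells; some hits fall short of that in this replicate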
# ARFGAP1 inhibitor – inhibitors of rat ARFGAP1 GAP activity, primary screen, biochemical, fluorescence polarization, GDP tracer; ADP-ribosylation factor GTPase-activating protein 1 (Rattus norvegicus), Q62848; AID 651572, 2012; Arfgap1-stimulated ARF1 GTP hydrolysis, GDP FP detection; inhibition, % at 16.5 µM; 0.26% of 360,000 active;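 active means inhibition above a per-plate limit, mean inhibition of low control wells plus 3 SD, cut at about 25% in these data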;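 further: 0% = DMSO wells with enzyme and 100% = wells lacking Arfgap1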
#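 Replicates: Single well per compound | Assay system: Truncated rat Arfgap1 GAP domain | Control set: No-Arfgap1 wells (100%) versus DMSO full-reaction wells (0%) | Times: Enzyme reaction 120 min at 25 °C after 20 min preincubation | Reagent: Human ARF1(Δ1-17)-GTP substrate | Measured by: Tracer-displacement fluorescence polarization with EDTA stop, 620/688 nm | Measure: Percent inhibition of Arfgap1-stimulated GTP hydrolysis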
# MC4R barr conf – MC4R beta-arrestin agonists, retest, confirmation, cell-based, luminescence, U2OS; shares compounds with MC4R ag barr; U2OS MC4R beta-arrestin recruitment; scaled DMSO 0%, Melanotan II 100%; activation, % at 8.9 µM; 31% of 2,400 active; AID 602192, 2012;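 active means mean activation across replicates above the hit cutoff set in the earlier primary screen, cut at about 8% in these data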
# MOR DOR agonist – agonists of MOR-DOR heterodimerization, counter-screen for MC4R biased agonist project, cell-based, luminescence. shares compounds with MC4R ag barr. U2OS PathHunter beta-arrestin, beta-gal luminescence; percent of deltorphin B response, DMSO zero. activation, % at 9.2 µM. 5.8% of 2,400 active. AID 602194, 2012;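 active means mean activation across replicates exceeds the hit threshold derived in the earlier primary screen, cut at about 18% in these data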;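 further: 100% = deltorphin B at 0.9 µM final and 0% = DMSO alone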
# * marks the source's active call; other numbers are inactive results; / = not tested or not shown. Only some compounds are listed: those with a hit (about 2.3% of all), similar ones and a draw of the others.
no. | SMILES | MC4R antag cAMP | NRP1-CendR mod | ASAP1 inh | MC4R ag barr | UUG fidelity | ARFGAP1 inhibitor | MC4R barr conf | MOR DOR agonist
1 | O=C(OCC(O)C(O)C(O)C(SCc1ccccc1)SCc1ccccc1)c1ccccc1 (stereo unspecified) | 6 | 14 | -5 | 17* | -12 | -6 | 14* | 11
2 | COc1cc(/C=C/C(=O)OCC(=O)NCCc2ccc(F)cc2)ccc1OC(F)F | 11 | 1 | 12 | 10* | -14 | -3 | 3 | 4
3 | COc1cc(/C=C/C(=O)OCC(=O)NCCc2ccccc2)ccc1OC(F)F | 1 | 2 | -5 | 3 | -3 | 7 | / | /
4 | CCOC(=O)c1oc2ccccc2c1NC(=O)COc1cccc(OC)c1 | 15 | -6 | 0 | 3 | -7 | -10 | / | /
5 | CCOC(=O)c1oc2ccccc2c1NC(=O)COc1ccc(F)cc1 | -6 | -6 | / | 37* | -9 | / | 25* | 21*
6 | CCOCc1c(C(=O)OCC(=O)NCc2ccc(F)cc2)oc2ccccc12 | 5 | -3 | -4 | 14* | -3 | 0 | 2 | 3
7 | O=C(Nc1ccc(N2CCOCC2)cc1)c1ccc2nc(-c3ccco3)c(-c3ccco3)nc2c1 | -14 | 9 | 16 | 10* | -3 | 7 | -1 | 17
8 | COc1ccc(S(=O)(=O)Nc2cccc3c2O[C@@H](CN(C)Cc2ccncc2)[C@@H](C)CN([C@@H](C)CO)C3=O)cc1 | / | / | / | / | 12 | / | / | /
9 | CCCCCOc1ccc(/C(C)=N/NC2=NCCN2)cc1 | 9 | 10 | 6 | 5 | -10 | -1 | / | /
10 | CCCCCCOc1ccc(/C(C)=N/NC2=NCCN2)cc1 | 2 | -8 | 3 | 11* | -14 | -10 | 29* | 12
11 | COc1ccc(-c2nn(C)c(=O)c3ccccc23)cc1NC(=O)COc1ccc(C)cc1 | -2 | -18 | 4 | 21* | -12 | 1 | 6 | 4
12 | Cc1ccc(-c2nn(CC(=O)NCc3cc(-c4nn(C)c(=O)c5ccccc45)ccc3C)c(=O)c3ccccc23)cc1 | 4 | -4 | 5 | 16* | -10 | -4 | 25* | 6
13 | CCC(=O)NCc1cc(-c2nn(C)c(=O)c3ccccc23)ccc1C | 6 | 11 | 18 | -1 | -13 | -1 | / | /
14 | Cc1ccc(NC(=O)c2ccc(-c3nn(C)c(=O)c4ccccc34)cc2)cc1 | 10 | -4 | 7 | 22* | -2 | 16 | -1 | 2
15 | COc1ccc(CN(C)C[C@H]2OCCCC[C@@H](C)Oc3ccc(NS(=O)(=O)c4c(C)noc4C)cc3C(=O)N([C@@H](C)CO)C[C@H]2C)cc1 | / | / | / | / | 26 | / | / | /
16 | Cc1cc(/C=N/n2cnnc2)c(C)n1-c1ccc(OCc2ccc(Cl)cc2Cl)cc1 | -17 | 1 | / | 14* | / | / | 5 | 5
17 | Cc1cc(/C=N/n2cnnc2)c(C)n1-c1ccc(Cl)cc1 | -6 | 12 | -15 | 1 | / | 5 | / | /
18 | C[C@H]1CN([C@@H](C)CO)C(=O)c2cc(-c3ccccc3F)cnc2O[C@H]1CN(C)C(=O)C1CCC1 | / | / | / | / | -9 | / | / | /
19 | O=C(CSc1nc2ccccc2s1)CSc1nc2ccccc2s1 | 0 | -11 | -6 | 15* | -2 | 12 | 8 | 2

# Ordered by molecular weight (lowest first): three of the compounds above.
no. | SMILES | MC4R antag cAMP | NRP1-CendR mod | ASAP1 inh | MC4R ag barr | UUG fidelity | ARFGAP1 inhibitor | MC4R barr conf | MOR DOR agonist
17 | Cc1cc(/C=N/n2cnnc2)c(C)n1-c1ccc(Cl)cc1 | -6 | 12 | -15 | 1 | / | 5 | / | /
10 | CCCCCCOc1ccc(/C(C)=N/NC2=NCCN2)cc1 | 2 | -8 | 3 | 11* | -14 | -10 | 29* | 12
5 | CCOC(=O)c1oc2ccccc2c1NC(=O)COc1ccc(F)cc1 | -6 | -6 | / | 37* | -9 | / | 25* | 21*
